By UniProt entry, the sequences of proteins in these tests, tags left out. Where a name states a change or a piece, a line headed by the entry shows the natural chain unless it says otherwise.
UniProt P14780: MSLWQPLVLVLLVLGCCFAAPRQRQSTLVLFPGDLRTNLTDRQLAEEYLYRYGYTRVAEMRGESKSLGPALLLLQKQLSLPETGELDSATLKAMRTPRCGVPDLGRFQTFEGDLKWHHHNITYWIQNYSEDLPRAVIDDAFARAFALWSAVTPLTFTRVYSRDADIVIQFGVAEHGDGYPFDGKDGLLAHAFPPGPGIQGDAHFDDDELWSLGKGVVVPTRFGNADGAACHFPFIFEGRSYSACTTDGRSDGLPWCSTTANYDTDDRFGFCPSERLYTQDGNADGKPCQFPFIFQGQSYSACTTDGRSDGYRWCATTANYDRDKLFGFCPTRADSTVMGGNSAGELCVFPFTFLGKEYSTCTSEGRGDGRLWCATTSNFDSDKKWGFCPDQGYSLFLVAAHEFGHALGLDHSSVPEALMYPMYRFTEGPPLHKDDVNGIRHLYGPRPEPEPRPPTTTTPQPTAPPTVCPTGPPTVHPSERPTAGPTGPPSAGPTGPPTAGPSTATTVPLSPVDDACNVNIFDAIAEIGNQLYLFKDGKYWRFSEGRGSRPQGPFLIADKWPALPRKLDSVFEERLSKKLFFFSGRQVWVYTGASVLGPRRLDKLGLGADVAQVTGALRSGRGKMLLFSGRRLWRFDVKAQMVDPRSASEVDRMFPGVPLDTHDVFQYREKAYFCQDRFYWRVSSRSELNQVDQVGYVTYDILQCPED
UniProt P08253: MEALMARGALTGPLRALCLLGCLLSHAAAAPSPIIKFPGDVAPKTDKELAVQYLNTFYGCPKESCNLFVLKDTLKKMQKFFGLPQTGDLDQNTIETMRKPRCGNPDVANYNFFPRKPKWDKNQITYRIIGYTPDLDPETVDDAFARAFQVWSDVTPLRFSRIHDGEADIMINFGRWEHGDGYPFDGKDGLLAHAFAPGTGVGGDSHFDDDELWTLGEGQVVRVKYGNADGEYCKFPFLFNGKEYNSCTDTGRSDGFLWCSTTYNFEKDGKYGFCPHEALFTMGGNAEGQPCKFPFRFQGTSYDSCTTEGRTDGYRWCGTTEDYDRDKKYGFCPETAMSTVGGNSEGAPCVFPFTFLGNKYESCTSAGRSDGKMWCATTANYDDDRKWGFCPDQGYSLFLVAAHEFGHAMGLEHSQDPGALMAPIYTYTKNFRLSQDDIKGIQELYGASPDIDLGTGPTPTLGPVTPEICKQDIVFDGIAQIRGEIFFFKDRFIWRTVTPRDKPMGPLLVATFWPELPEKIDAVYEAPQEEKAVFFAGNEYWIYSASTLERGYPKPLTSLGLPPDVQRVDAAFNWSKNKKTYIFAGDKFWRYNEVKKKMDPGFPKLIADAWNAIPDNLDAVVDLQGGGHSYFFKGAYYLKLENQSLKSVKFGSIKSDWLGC

According to ChEMBL document CHEMBL1133013, “Structure-activity relationships and pharmacokinetic analysis for a series of potent, systemically available biphenylsulfonamide matrix metalloproteinase inhibitors” (J Med Chem, 2000):

Tests used:
[1] = biological target: Collagenase 3 (Homo sapiens, UniProt P45452)
[2] = biological target: T1, Interstitial collagenase (Homo sapiens, UniProt P03956); experiment: In vitro inhibition of human recombinant matrix metalloprotease-1 (MMP-1)
T1 sequence (P03956 whole entry): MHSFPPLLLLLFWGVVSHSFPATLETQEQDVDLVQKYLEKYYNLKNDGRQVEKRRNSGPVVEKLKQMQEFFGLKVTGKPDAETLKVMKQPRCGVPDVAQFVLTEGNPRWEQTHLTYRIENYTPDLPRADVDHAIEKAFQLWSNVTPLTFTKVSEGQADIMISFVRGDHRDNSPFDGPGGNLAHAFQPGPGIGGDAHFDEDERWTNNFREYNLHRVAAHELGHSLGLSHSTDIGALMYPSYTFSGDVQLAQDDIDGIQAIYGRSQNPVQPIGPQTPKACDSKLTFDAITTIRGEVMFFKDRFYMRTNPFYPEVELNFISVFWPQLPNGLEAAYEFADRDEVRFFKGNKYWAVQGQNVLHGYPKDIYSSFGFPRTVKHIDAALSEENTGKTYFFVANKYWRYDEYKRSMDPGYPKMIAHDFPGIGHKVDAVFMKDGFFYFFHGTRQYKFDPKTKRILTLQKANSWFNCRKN

[3] = biological target: T2, Matrilysin (Homo sapiens, UniProt P09237); experiment: In vitro inhibition of matrix metalloprotease-7 (MMP-7)
T2 sequence (P09237 whole entry): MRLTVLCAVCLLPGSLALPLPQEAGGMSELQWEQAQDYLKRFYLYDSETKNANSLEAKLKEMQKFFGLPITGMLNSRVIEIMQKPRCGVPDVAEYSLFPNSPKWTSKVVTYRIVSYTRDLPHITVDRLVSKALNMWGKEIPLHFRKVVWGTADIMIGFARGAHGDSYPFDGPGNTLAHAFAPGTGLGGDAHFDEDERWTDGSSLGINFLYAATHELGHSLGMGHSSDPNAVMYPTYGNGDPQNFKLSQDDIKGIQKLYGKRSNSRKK
Method in brief: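 Bacterially expressed catalytic domains, purified chromatographically. Run at pH 7.0: MMP-7 in 50 mM HEPES; MMP-2 in MOPS plus 10 μM ZnCl2. Both with 10 mM CaCl2, 1 mM DTNB, 0.1% Brij 35, 2% DMSO, 100 μM thioester peptide substrate, enzyme 2.5-50 nM. Thiol release read at A405 over 10 min. IC50 by sigmoid least-squares fit, replicate values averaged.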

[4] = biological target: Matrix metalloproteinase-9 (Homo sapiens, UniProt P14780); experiment: In vitro inhibition of matrix metalloprotease-9 (MMP-9)
Method in brief: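 Full-length enzymes from human cell-conditioned media. MMP-1 activated with trypsin, MMP-9 with MMP-3CD. pH 7.0, 50 mM HEPES, 10 mM CaCl2, 1 mM DTNB, 0.1% Brij 35, 2% DMSO, thioester peptide substrate (100 μM; MMP-9 50 μM), enzyme 2.5-50 nM. A405 followed 10 min. IC50 from sigmoid fit of % control activity, replicates averaged.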

[5] = biological target: 72 kDa type IV collagenase (Homo sapiens, UniProt P08253); experiment: In vitro inhibition of matrix metalloprotease-2 (MMP-2)

Compound | IC50 [1] [nM] | IC50 [2] [nM] | also measured
CC(C)[C@H](NS(=O)(=O)c1ccc(-c2ccc(C#N)cc2)cc1)C(=O)NO | 580 | – | –
CC(C)[C@H](NS(=O)(=O)c1ccc(-c2ccc(N)cc2)cc1)C(=O)O | – | 26000 | –
O=C(CCc1ccccc1)NCCCC[C@H](NS(=O)(=O)c1ccc(-c2ccc(Br)cc2)cc1)C(=O)O | 4 | – | –
CC(C)[C@H](NS(=O)(=O)c1ccc(-c2cccc(Br)c2)cc1)C(=O)O | – | – | IC50 [3]: 100000 nM; IC50 [4]: 100000 nM
O=C(O)[C@H](Cc1ccccc1)NS(=O)(=O)c1ccc(-c2ccc(Br)cc2)cc1 | – | 56000 | –
CC(C)[C@@H](NS(=O)(=O)c1ccc(Oc2ccccc2)cc1)C(=O)NO | – | 50 | –
CC(C)[C@@H](NS(=O)(=O)c1ccc(-c2ccc(C#N)cc2)cc1)C(=O)NO | 1 | – | –
CC(C)[C@H](NS(=O)(=O)c1ccc(-c2ccc(C(F)(F)F)cc2)cc1)C(=O)O | – | – | IC50 [5]: 13 nM
